Results as given in patent US20240124460A1, “METHODS AND COMPOSITIONS FOR TARGETED PROTEIN DEGRADATION” (Ranok Therapeutics (Hangzhou) Co. Ltd., priority 2020, published 2024).
Read-outs that look alike come from different tables or passages of the source.

The chains behind the UniProt entries cited, without tags or fusion partners.
UniProt Q13164, whole entry: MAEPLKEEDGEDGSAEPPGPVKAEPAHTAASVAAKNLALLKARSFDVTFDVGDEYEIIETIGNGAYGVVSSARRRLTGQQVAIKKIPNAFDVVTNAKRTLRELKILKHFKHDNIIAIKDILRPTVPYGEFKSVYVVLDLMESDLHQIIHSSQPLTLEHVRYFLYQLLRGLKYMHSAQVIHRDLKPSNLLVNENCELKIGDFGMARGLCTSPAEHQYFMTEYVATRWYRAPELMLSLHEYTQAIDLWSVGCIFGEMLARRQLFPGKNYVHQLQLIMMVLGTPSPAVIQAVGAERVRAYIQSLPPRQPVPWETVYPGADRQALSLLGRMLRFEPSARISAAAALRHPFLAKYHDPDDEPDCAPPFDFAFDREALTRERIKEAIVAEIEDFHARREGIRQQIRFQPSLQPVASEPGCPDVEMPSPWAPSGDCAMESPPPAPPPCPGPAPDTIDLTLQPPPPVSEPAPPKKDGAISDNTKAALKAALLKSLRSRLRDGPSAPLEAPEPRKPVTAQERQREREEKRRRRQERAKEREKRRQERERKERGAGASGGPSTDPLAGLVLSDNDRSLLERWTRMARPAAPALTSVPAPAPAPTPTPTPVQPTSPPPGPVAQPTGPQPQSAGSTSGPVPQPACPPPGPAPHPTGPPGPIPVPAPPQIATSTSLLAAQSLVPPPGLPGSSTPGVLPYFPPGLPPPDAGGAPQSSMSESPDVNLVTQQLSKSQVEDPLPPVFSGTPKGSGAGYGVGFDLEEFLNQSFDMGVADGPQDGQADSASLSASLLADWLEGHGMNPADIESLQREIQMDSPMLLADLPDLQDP

Experiments:
HSP90α protein [1] = target: T1, HSP90α protein (Homo sapiens, UniProt P07900); experiment: HSP90α-binding FP (BODIPY) assay; conditions: read-out: HSP90α binding (BODIPY), FP competition with BODIPY-labeled RNK04010
Protocol: (§1) Binding of test compounds to HSP90α protein was measured by fluorescent polarization (FP) using the HSP90α (N-terminal) Assay Kit (BPS Bioscience, #50298), following the manufacturer's instructions, except as noted. Fluorescently labeled HSP90-binding compounds, either the provided FITC-geldanamycin (5 nM final concentration) or RNK04010, a triazolone-based HSP90 binding small molecule labeled with BODIPY through a piperazine-phenyl linker (5 nM final concentration) were employed. A 2.5-fold serial dilution of each test compound ranging from 20 μM to 5.2 nM was assayed for binding to HSP90α. After the final step of adding HSP90α protein to each assay well, plates were mixed by brief shaking, incubated at 25° C. for 120 min for FITC-geldanamycin or 300 min for RNK04010, and fluorescence was measured using a PerkinElmer EnVision Plate Reader. Background-subtracted mP values were calculated from raw data and a four-parameter “log[inhibitor] vs. response” curve was fitted and IC50 values (the concentration at which 50% of the maximal inhibition occurs) calculated using GraphPad Prism 7 software.

[2] = system: U-87 MG human glioblastoma; experiment: U87 MG CCK-8 proliferation assay; conditions: read-out: U87MG CCK-8, U-87 MG cells, 72 hr
Protocol: (§2) The following cancer cell lines were employed: A549 human lung carcinoma (ATCC, #CCL-185); BT-474 human breast carcinoma (ATCC, #HTB-20); MDA-MB-231 human breast adenocarcinoma (ATCC, #CRM−HTB-26); MDA-MB-468 human breast adenocarcinoma (ATCC, #HTB-132); MV-4-11 human acute myeloid leukemia (ATCC, #CRL-9591); and U-87 MG human glioblastoma (ATCC, #HTB-14). Cell lines were cultured essentially according to ATCC recommendations.
(§3) Cells were plated in 96-well tissue culture plates at 4,000 cells/well and incubated at 37° C./5% CO2 for 24 hr. 3-fold serial dilutions of each test compound were prepared ranging from 20 μM to 1.02 nM. Cells were then treated with test compounds at various concentrations with a final concentration of 0.5% DMSO/well, and then incubated at 37° C./5% CO2 for 72 hr. 10 μl the cell proliferation detection reagent CCK-8 (Dojindo Molecular Technologies, #CK04) was added to each well and incubated at 37° C./5% CO2 for 3-4 hr and the absorbance at 450 nm measured using an Perkin Elmer EnVision Plate Reader. Compound inhibition of was determined by the following equation and EC50 values (the concentration at which 50% of the maximal inhibition occurs) calculated using GraphPad Prism 7 software:
(§4) % Inhibition=100−(D−B)/(S−B)*100%. • S: Absorbance of cells treated with DMSO • D: Absorbance of compound-treated cells • B: Absorbance of medium with DMSO without cells

[3] = system: MV-4-11 human acute myeloid leukemia; experiment: MV-4-11 CCK-8 proliferation assay; conditions: read-out: MV-4-11 CCK-8, MV-4-11 cells, 72 hr
Protocol: as §2, §3, §4

HSP90α protein [4] = target: T1, HSP90α protein; experiment: HSP90α-binding FP (FITC) assay; conditions: read-out: HSP90α binding (FITC); FP competition with FITC-geldanamycin; tested form: TFA
Protocol: as §1

ERBB2 = ERBB2 (HER2) flow cytometry protein degradation assay in BT-474 cells; conditions: DC50, BT-474 cells, 24 hr
Protocol: BT-474 human breast carcinoma cells were plated in 24-well tissue culture plates at 250,000 cells/well and incubated at 37° C./5% CO2 for 24 hr. Cells were then treated with test compounds at various concentrations and incubated at 37° C./5% CO2 for 24 hr. To analyze total ERBB2 expression by flow cytometry, cells were detached with trypsin, washed, counted and treated with 10 μl/10^6 cells PE-conjugated, anti-ERBB2 monoclonal antibody (R&D Systems, #FAB1129P) for 30 min at 25° C. in dark. Cells were then washed, resuspended in 200 μl 1% paraformaldehyde and analyzed by flow cytometry. Compound inhibition of was determined by the following equation and DC50 values (the concentration at which 50% of the maximal degradation of ERBB2 occurs) calculated using GraphPad Prism 7 software:
% Inhibition=100−(D−B)/(S−B)*100%. • S: Fluorescence intensity of cells with antibody • D: Fluorescence intensity of compound-treated cells with antibody • B: Fluorescence intensity of cells without antibody

[5] = system: A549 human lung carcinoma; experiment: A549 CCK-8 proliferation assay; conditions: read-out: A549 CCK-8, A549 cells, 72 hr
Protocol: as §2, §3, §4

MAPK7 [6] = target: T2, MAPK7 (Homo sapiens, UniProt Q13164); experiment: MAPK7 kinase assay (ADP-Glo)
Protocol: The inhibition of MAPK7 kinase activity by test compounds was measured by the ADP-Glo Kinase Assay (Promega, #V6930), following the manufacturer's instructions, except as noted. 3-fold serial dilutions of each test compound were prepared ranging from 50 μM to 2.54 nM. Also, as a positive control, a 4-fold serial dilution of the MAPK7 inhibitor, XMD17-109 (MedChemExpress, #HY-15665) was prepared ranging from 10 μM to 0.04 nM. In brief, in 384-well plates, test compounds were added to the kinase reaction mix containing recombinant MAPK7 protein (Carna Biosciences, #04-146; 20 nM final concentration), myelin basic protein (SignalChem Biotech, #M42-54G; 0.1 mg/ml final concentration) and ATP (340 μM final concentration), then mixed by shaking and incubated with ADP-Glo Reagent and Kinase Detection Reagent. Luminescence was measured on a BioTek plate reader. The % inhibition was calculated using following equation and plotted and IC50 values (the concentration at which 50% of the maximal inhibition occurs) calculated using GraphPad Prism 7 software: […]
Lumpositive: The average ratio for 10 wells of positive controls (10 μM XMD17-109) across the plate.
Lumvehicle: The average ratio for 10 wells of negative controls (0.5% DMSO) across the plate.

MAPK7 [7] = target: T2, MAPK7; experiment: MAPK7 Western blot protein degradation assay in U-87 MG cells; conditions: 48 hr, tested form: HCl
Protocol: U-87 MG human glioblastoma cells were seeded in 6- or 12-well tissue culture plates, and after 1 hr, test compounds were added at various concentrations and incubated at 37° C./5% CO2 for 48 hr. Cells were then washed with cold PBS, aspirated and cold RIPA buffer containing a protease/phosphatase inhibitor cocktail was added to lyse cells. After centrifugation, the total protein concentrations of cell lysates were determined using the BCA protein assay. Samples were normalized for equivalent protein concentrations, 5×SDS-PAGE loading buffer added and denatured at 100° C. for 10 min. 20 μl of each sample/well was loaded on a SDS-PAGE gel and electrophoresed for 20 min at 80 V, then 120 V for 1.5 hr. Gels were then electroblotted to nitrocellulose membranes using a wet-transfer method at 250 mA for 2.5 hr. Membranes were incubated with blocking buffer for 1 hr and washed 3 times with TBST for 5 min. Membranes were then incubated with anti-MAPK7 (anti-ERK5; Cell Signaling Technology, #12950) and anti-3-Actin (Cell Signaling Technology, #3700) monoclonal antibodies diluted in blocking buffer at 4° C. overnight per the manufacturer's recommendations. After washing 3 times, blots were incubated with appropriately labeled secondary antibodies for 1 hr at room temperature and washed again. Fluorescence imaging and quantitation was performed using a LI-COR Odyssey. Results was analyzed using GraphPad Prism 7 software.

[8] = system: MDA-MB-231 human breast adenocarcinoma; experiment: MDA-MB-231 CCK-8 proliferation assay; conditions: read-out: MDA-MB-231 CCK-8; MDA-MB-231 cells, 72 hr; tested form: HCl
Protocol: as §2, §3, §4

[9] = system: MDA-MB-468 human breast adenocarcinoma; experiment: MDA-MB-468 CCK-8 proliferation assay; conditions: read-out: MDA-MB-468 CCK-8; MDA-MB-468 cells, 72 hr; tested form: HCl
Protocol: as §2, §3, §4

[10] = read-out: MAPK7 kinase, ATP 340 μM, tested form: TFA

SMILES | IC50 (HSP90α protein [1]; tested form: TFA) [µM] | EC50 ([2]; tested form: TFA) [µM] | EC50 ([3]; tested form: TFA) [µM] | other results
CCNC(=O)c1nnc(-c2cc(CC)c(O)cc2O)n1-c1ccc(CN2CCN(CC3CCN(C(=O)C4CCN(c5ccc(N(CC)c6ncc7c(n6)N(C)c6ccccc6C(=O)N7C)c(OCC)c5)CC4)CC3)CC2)cc1 | < 0.1 | 0.1 to 1 | < 0.1 | –
CCOc1cc(N2CCC(C(=O)NCCOc3ccc(-n4c(O)nnc4-c4cc(C(C)C)c(O)cc4O)cc3)CC2)ccc1Nc1ncc2c(n1)N(C)c1ccccc1C(=O)N2C | – | 0.1 to 1 | < 0.1 | IC50 (HSP90α protein [4]): 0.1 to 1 µM
CCOc1cc(N2CCC(C(=O)N3CCC(CN4CCN(Cc5ccc(-n6c(O)nnc6-c6cc(C(C)C)c(O)cc6O)cc5)CC4)CC3)CC2)ccc1Nc1ncc2c(n1)N(S(C)(=O)=O)c1ccccc1C(=O)N2C | < 0.1 | 0.1 to 1 | < 0.1 | ERBB2 degradation (ERBB2; tested form: TFA): B (DC50 = 100-1000 nM); EC50 ([5]; tested form: TFA): 0.1 to 1 µM; IC50 (MAPK7 [6]; [10]): 0.1 to 1 µM
CCOc1cc(N2CCC(C(=O)NCc3ccc(-n4c(O)nnc4-c4ccc(O)cc4O)cc3)CC2)ccc1Nc1ncc2c(n1)N(C)c1ccccc1C(=O)N2C | > 1 | > 1 | > 1 | ERBB2 degradation (ERBB2; tested form: TFA): C (DC50 > 1000 nM)
CCOc1cc(N2CCC(C(=O)N3CCN(Cc4ccc(-n5c(O)nnc5-c5cc(C(C)C)c(O)cc5O)cc4)CC3)CC2)ccc1N(C)c1ncc2c(n1)N(C)c1ccccc1C(=O)N2C [Compound 047, 2-((4-(4-(4-(4-(3-(2,4-dihydroxy-5-isopropylphenyl)-5-hydroxy-4H-1,2,4-triazol-4-yl)benzyl)piperazine-1-carbonyl)piperidin-1-yl)-2-ethoxyphenyl)(methyl)amino)-5,11-dimethyl-5,11-dihydro-6H-benzo[e]pyrimido[5,4-b][1,4]diazepin-6-one] | – | – | – | ERBB2 degradation (ERBB2; tested form: HCl): B (DC50 = 100-1000 nM); IC50 (HSP90α protein [1]; tested form: HCl): 0.1 to 1 µM; EC50 ([2]; tested form: HCl): 0.1 to 1 µM; EC50 ([3]; tested form: HCl): < 0.1 µM; EC50 ([5]; tested form: HCl): 0.1 to 1 µM; MAPK7 degradation (30 nM) (MAPK7 [7]; 30 nM): C (< 33% degradation); MAPK7 degradation (100 nM) (MAPK7 [7]; 100 nM): C (< 33% degradation); MAPK7 degradation (300 nM) (MAPK7 [7]; 300 nM): A (>66% degradation); MAPK7 degradation (1000 nM) (MAPK7 [7]; 1000 nM): A (>66% degradation); EC50 [8]: 0.1 to 1 µM; IC50 (MAPK7 [6]; read-out: MAPK7 kinase, ATP 340 μM, tested form: HCl): > 1 µM; EC50 [9]: 0.1 to 1 µM
CCOc1cc(N2CCC(C(=O)N3CCC(COc4ccc(Nc5cc(-n6nc(C(F)(F)F)c7c6CC(C)(C)CC7=O)ccc5C(N)=O)cc4)CC3)CC2)ccc1Nc1ncc2c(n1)N(C)c1ccccc1C(=O)N2C | > 1 | > 1 | > 1 | –
CCOc1cc(N2CCC(C(=O)NCCOCCOc3ccc(-n4c(O)nnc4-c4cc(CC)c(O)cc4O)cc3)CC2)ccc1Nc1ncc2c(n1)N(S(C)(=O)=O)c1ccccc1C(=O)N2C | < 0.1 | > 1 | 0.1 to 1 | –
CCOc1cc(N2CCC(C(=O)N3CCC(CN4CCN(Cc5ccc(-n6c(O)nnc6-c6ccc(O)cc6O)cc5)CC4)CC3)CC2)ccc1Nc1ncc2c(n1)N(S(C)(=O)=O)c1ccccc1C(=O)N2C | 0.1 to 1 | > 1 | 0.1 to 1 | –
CCOc1cc(N2CCC(C(=O)N3CCC(CN4CCN(Cc5ccc(-n6c(C(=O)NCC(F)(F)F)nnc6-c6cc(CC)c(O)cc6O)cc5)CC4)CC3)CC2)ccc1Nc1ncc2c(n1)N(S(C)(=O)=O)c1ccccc1C(=O)N2C | 0.1 to 1 | < 0.1 | < 0.1 | –
CCOc1cc(N2CCC(C(=O)NCCOCCOCCOc3ccc(-n4c(O)nnc4-c4cc(C(C)C)c(O)cc4O)cc3)CC2)ccc1Nc1ncc2c(n1)N(S(C)(=O)=O)c1ccccc1C(=O)N2C | < 0.1 | > 1 | < 0.1 | –
CCOc1cc(N2CCC(C(=O)NCc3ccc(-n4c(O)nnc4-c4ccc(O)cc4O)cc3)CC2)ccc1Nc1ncc2c(n1)N(S(C)(=O)=O)c1ccccc1C(=O)N2C | 0.1 to 1 | > 1 | > 1 | –
CCOc1cc(N2CCC(C(=O)N3CCC(COc4ccc(Nc5cc(-n6nc(C(F)(F)F)c7c6CC(C)(C)CC7=O)ccc5C(N)=O)cc4)CC3)CC2)ccc1N(CC)c1ncc2c(n1)N(S(C)(=O)=O)c1ccccc1C(=O)N2C | > 1 | > 1 | > 1 | IC50 (MAPK7 [6]; [10]): > 1 µM
CCOc1cc(N2CCC(C(=O)N3CCC(CN4CCN(Cc5ccc(-n6c(O)nnc6-c6cc(C(C)C)c(O)cc6OC)cc5)CC4)CC3)CC2)ccc1N(CC)c1ncc2c(n1)N(C)c1ccccc1C(=O)N2C | > 1 | – | > 1 | IC50 (MAPK7 [6]; [10]): > 1 µM
